Literature values as cited in patent US4988684A, “Novel 4-alkylthio-steroids” (Roussel Uclaf, priority 1988, dated 1991).

System: Aromatase
Settings: it attacks enzymatic processes other than that leading from androgens to estrogens; cited from earlier work

For `CCC1(c2ccc(N)cc2)CCC(=O)NC1=O` (stereo not shown) [Aminogluthetimide], the “specificity for Aromatase” value is listed as “not to be specific for Aromatase”.
